Measurements as given in PubChem BioAssay AID799 (SRMLSC, 2007).
Only a part is listed here, and it is no random draw. Activity calls are given as the source filed them.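 How the source made its calls: active means viability gain under doxorubicin at or above a set limit, the compound median plus 3 SD (cut at about 4.7% in these data); inactive means the rest.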

assay: protection of MRP-1-high cells against doxorubicin toxicity – H69AR cells, CellTiter-Glo, MRP-1 activator project, primary screen (AID 799); settings: viability rescue, at 10 µM, stronger effect = higher value;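 further: MRP-1 overexpressing cells given doxorubicin 25 µM after compound pretreatment; 18-22 h compound pretreatment then 72 h with doxorubicin before readout; 0% = doxorubicin-only wells and 100% = vehicle-treated cells without doxorubicin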

Compound | viability increase
O=C(NCC1(N2CCOCC2)CCCCC1)c1cc(=O)[nH]c2ccccc12 | inactive: -2.13%
CN1CCN(CCOC(=O)C(O)(c2ccccc2)c2ccccc2)CC1 | inactive: -1.18%
N#CC1(Nc2ccccc2)CCN(CCc2ccccc2)CC1 | inactive: -3.45%
COc1ccc(NC2CCN(CCc3ccccc3)CC2)c(OC)c1 | inactive: -2.75%
O=C(NCC1(N2CCOCC2)CCCCC1)c1cc2ccccc2o1 | inactive: -2.63%
O=C(OC1CN2CCC1CC2)C1c2ccccc2Oc2ccccc21 (stereo not drawn) | inactive: -3.23%
CCC(CO)(C(=O)OC1CN2CCC1CC2)c1ccccc1 (stereo not drawn) | inactive: -0.79%
CCOc1ncccc1C(=O)NCC1(N2CCOCC2)CCCCC1 | inactive: -1.33%
CCN1CCC(Nc2cccc(F)c2)CC1 | inactive: -0.32%
Fc1ccccc1NC1CCN(Cc2ccccc2)CC1 | inactive: -2.4%
c1ccc(CN2CCC(Nc3ccccc3)CC2)cc1 | inactive: -1.26%
N/C(=N\O)c1c(N)no[n+]1[O-] | inactive: -1.31%
O=C(OC1CN2CCC1CC2)C1c2ccccc2C=Cc2ccccc21 (stereo not drawn) | inactive: -3.03%
